Sequences of proteins named here, by UniProt entry; tags and fusion partners are left off.
UniProt P09917, whole entry: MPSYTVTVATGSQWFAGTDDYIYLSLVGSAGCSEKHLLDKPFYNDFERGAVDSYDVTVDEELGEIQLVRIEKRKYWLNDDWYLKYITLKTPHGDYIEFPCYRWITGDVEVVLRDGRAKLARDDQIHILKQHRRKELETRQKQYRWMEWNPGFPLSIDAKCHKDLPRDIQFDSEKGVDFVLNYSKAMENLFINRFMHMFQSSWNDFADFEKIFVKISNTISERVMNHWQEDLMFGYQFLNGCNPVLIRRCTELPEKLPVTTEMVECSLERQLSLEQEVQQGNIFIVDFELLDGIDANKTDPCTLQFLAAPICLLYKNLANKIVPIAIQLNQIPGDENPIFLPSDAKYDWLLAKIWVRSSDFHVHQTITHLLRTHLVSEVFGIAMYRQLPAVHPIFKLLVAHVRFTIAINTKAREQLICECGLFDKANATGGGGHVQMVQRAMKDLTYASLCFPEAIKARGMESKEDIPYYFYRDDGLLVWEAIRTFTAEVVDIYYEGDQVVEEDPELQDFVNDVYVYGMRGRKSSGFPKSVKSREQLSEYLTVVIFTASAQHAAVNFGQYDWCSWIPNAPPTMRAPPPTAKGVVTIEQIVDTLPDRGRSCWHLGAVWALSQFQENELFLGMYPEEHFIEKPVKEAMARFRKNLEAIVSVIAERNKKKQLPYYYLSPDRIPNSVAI
UniProt P12530, whole entry: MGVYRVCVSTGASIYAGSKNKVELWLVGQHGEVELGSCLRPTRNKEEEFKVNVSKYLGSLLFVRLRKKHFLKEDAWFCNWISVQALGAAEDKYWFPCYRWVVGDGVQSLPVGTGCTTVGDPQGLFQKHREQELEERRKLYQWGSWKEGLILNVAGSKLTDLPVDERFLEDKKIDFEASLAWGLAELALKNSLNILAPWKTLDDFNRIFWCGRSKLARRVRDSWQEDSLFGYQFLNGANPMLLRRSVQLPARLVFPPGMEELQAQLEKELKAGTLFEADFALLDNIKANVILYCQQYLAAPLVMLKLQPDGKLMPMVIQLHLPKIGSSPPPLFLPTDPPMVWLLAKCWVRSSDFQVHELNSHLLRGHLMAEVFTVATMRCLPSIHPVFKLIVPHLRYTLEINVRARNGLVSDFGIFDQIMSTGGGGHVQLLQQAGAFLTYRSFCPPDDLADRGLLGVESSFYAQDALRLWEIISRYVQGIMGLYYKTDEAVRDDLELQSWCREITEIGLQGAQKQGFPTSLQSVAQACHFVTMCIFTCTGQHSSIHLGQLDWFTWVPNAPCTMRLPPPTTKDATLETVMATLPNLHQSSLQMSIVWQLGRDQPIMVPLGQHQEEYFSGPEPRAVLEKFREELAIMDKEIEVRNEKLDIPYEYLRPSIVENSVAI

According to US7553837B2, “Phenylazole compounds production process and antioxidants” (Nippon Soda Co., Ltd., priority 2003, dated 2009):

Experiments:
[1] = system: lipid peroxidation activity in a rat brain homogenate; assay: In vitro lipid peroxidation inhibition (rat brain homogenate, thiobarbituric acid process); conditions: read-out: In vitro lipid peroxidation inhibition 50% inhibitory concentration (IC50 μM), 500 μM cysteine, 5 μM sulfuric acid monobasic iron, 100 mM KCl, 37° C. for 30 minutes
[2] = system: lipid peroxidation activity of each tissue homogenate (brain, heart and kidney); assay: Tissue migration properties: ex vivo lipid peroxidation inhibition in brain, heart and kidney homogenates; conditions: SD male rats, 100 mg/kg intraperitoneally, 30 minutes after administration
[3] = system: abnormal behavior and fatality due to ferrous chloride; assay: In vivo antioxidative activity: ferrous chloride administration into spinal subarachnoid cavity of mice; conditions: score after 60 minutes
Experimental: An in vivo antioxidative activity of the compounds of the present invention was evaluated from an abnormal behavior due to administration of ferrous chloride into spinal subarachnoid cavity of mice as well as an inhibitory effect of a fatality rate according to the process described in J. Med. Chem., 1997, Vol. 40, p. 559-573. Using Slc:ICR male mice (one group: 3 to 7 mice, 5 weeks old) (available from Nippon SLC Co., Ltd.), 5 μl of a 50 mM ferrous chloride physiological saline solution was administered to the spinal canal through the space between the fifth lumbar vertebrae and the sixth lumbar vertebrae. 20 to 60 minutes after administration of ferrous chloride, symptoms were observed and a score after 60 minutes was determined from symptoms shown in Table 32. Each of test compounds was dissolved or suspended in a physiological saline solution or a 1% poly oxy ethylene hydrogenated castor oil (NIKKOL HCO-60, manufactured by Nikko Chemicals Co., Ltd.) physiological saline solution and the resulting solution or suspension was intraperitoneally or orally administered 30 minutes before administration of ferrous chloride. a 50% inhibitory dose (hereinafter abbreviated to ID50) of the compounds of the present invention was determined from the score of a control group (physiological saline administration group) and the score of a test compound administration group. […]

[4] = biological target: 5-lipoxygenase (5-LO) (Homo sapiens, UniProt P09917); assay: 5-lipoxygenase (5-LO) inhibitory activity, leukotriene B4 production in human peripheral blood mononuclear cells; conditions: read-out: Lipoxygenase inhibitory action 50% inhibitory dose (IC50) 5-LO, A23187, leukotriene B4 production
Experimental: A 5-LO inhibitory activity was measured by a partially modified process of a process of Carter et al. (Carter G. W, et al, J. Pharmacol. Exp. Ther.: 256, 929-37, 1991). That is, human peripheral blood mononuclear cells and each of test compounds dissolved in DMSO (final concentration: 1%) were preincubated (37° C., 15 minutes) in a Hanks' balanced salt solution and 30 μM A23187 was further added, followed by incubation (37° C., 30 minutes). The amount of leukotriene B4 produced as a result of incubation was determined by enzyme immunoassay and a 50% production inhibitory concentration (μM) against 5-LO of each test compound was calculated.

[5] = biological target: 15-LO obtained from reticulocyte of rabbit (Oryctolagus cuniculus, UniProt P12530); assay: 15-lipoxygenase (15-LO) inhibitory activity, 15-HETE production; conditions: read-out: Lipoxygenase inhibitory action 50% inhibitory dose (IC50) 15-LO, 15-LO from reticulocyte of rabbit, linoleic acid
Experimental: A 15-LO inhibitory activity was measured by a partially modified process of a process of Auerbach et al. (Auerbach B. J, et al., Anal. Biochem.: 201, 375-80, 1992). That is, 15-LO obtained from reticulocyte of rabbit and each of test compounds dissolved in DMSO (final concentration: 1%) were preincubated (4° C., 15 minutes) in phosphoric acid buffer (pH 7.4) and 256 μM linoleic acid was further added, followed by incubation (4° C., 10 minutes). The amount of 15-HETE produced as a result of incubation was determined by spectrophotometry (OD660nm) and 50% production inhibitory concentration (μM) against 15-LO of each test compound was calculated. Compounds (R-3) and (R-4) (edaravone) of the following formulas were used as a control drug.

[6] = system: male mice; assay: Acute oral toxicity, single oral dose, mortality rate after 7 days; type: in vivo; conditions: observed for 7 days

Cc1c(C)c2c(c(C)c1N)CC(C)(CN1CCc3c([nH]c4ccccc34)C1)O2 (stereo not drawn)
IC50 [1]: 0.34 µM | Ex vivo lipid peroxidation inhibition inhibition ratio (%) Brain ([2]; brain homogenate): 98% | Ex vivo lipid peroxidation inhibition inhibition ratio (%) Heart ([2]; heart homogenate): 90% | Ex vivo lipid peroxidation inhibition inhibition ratio (%) Kidney ([2]; kidney homogenate): 94% | In vivo antioxidation action 50% inhibitory concentration (ID50), Intraperitoneal administration ([3]; intraperitoneal administration 30 minutes before ferrous chloride into spinal canal): 5.4 mg/kg | In vivo antioxidation action 50% inhibitory concentration (ID50), Oral administration ([3]; oral administration 30 minutes before ferrous chloride into spinal canal): 14 mg/kg | pIC50 [4]: 5.55 | pIC50 [5]: 5.80 | Mouse acute oral toxicity (LD50) [6]: >300 mg/kg

pIC50: −log10 of the molar value.
